Eight compounds from PubChem BioAssay AID1222 (Sanford-Burnham Center for Chemical Genomics, 2008) can be followed below.

Structures are written as SMILES. This is one part of the list. Results with a measured potency or affinity are listed apart. Some results for these compounds are left out of this collection, so the calls shown say nothing about other tests. Calls of active or inactive are those of the source.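 How the source made its calls: active means EC50 below 50 µM in the dose-response confirmation; inactive means the rest.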

The test is described as follows: rescue of cells from ER stress-induced death, primary screen, 384-well, CSM14.1, thapsigargin, ATP luminescence (AID 1222).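 Further: death triggered by thapsigargin at about 15 µM added after 2 h compound pretreatment; cell ATP read after overnight thapsigargin exposure of roughly 18 to 22 hours; reference of the scale not given here.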 The following applies: CSM14.1 thapsigargin-induced death rescue, at 20 µM, active compounds read high.
Take `C=CCN1CCN(CCOC(=O)C(O)(c2ccccc2)c2ccccc2)CC1`: the cellular ATP content (survival) is inactive: -1.4%.
The figure for `CCN1CCCC(OC(=O)C2(O)c3ccccc3C=Cc3ccccc32)C1` (stereo not drawn) is inactive: -0.6%.
The figure for `Cc1ccccc1C(=O)NCC1(N2CCCCC2)CCCCC1` is inactive: -1.7%.
With `CN(C)C1CCCC1OC(=O)C(O)(c1ccccc1)c1ccccc1` (stereo not drawn) the figure was inactive: -2.9%; with `CC(C)N1C(=O)CC2(CCN(CCOC(=O)C(O)(c3ccccc3)c3ccccc3)CC2)C1=O`, inactive: -1.1%; with `O=C(NCC1(N2CCCCC2)CCCCC1)c1cc([N+](=O)[O-])ccc1Cl`, inactive: -1.8%.
`CN(C)c1cccc(C(=O)NCC2(N(C)C)CCCCC2)c1`: the cellular ATP content (survival) was inactive: 1.3%.
`COc1cccc(C(=O)NCC2(N3CCCCC3)CCCCC2)c1`: the cellular ATP content (survival) is inactive: -2.1%.
